# Test results from patent publication US9725445B2, “Cycloalkyl nitrile pyrazolo pyridones as Janus kinase inhibitors” (Merck Sharp & Dohme Corp., priority 2013, dated 2017).
# Amino acid sequences for entries named in this document (tags omitted). Residues count along the entry.
# UniProt O60674, 849-1124: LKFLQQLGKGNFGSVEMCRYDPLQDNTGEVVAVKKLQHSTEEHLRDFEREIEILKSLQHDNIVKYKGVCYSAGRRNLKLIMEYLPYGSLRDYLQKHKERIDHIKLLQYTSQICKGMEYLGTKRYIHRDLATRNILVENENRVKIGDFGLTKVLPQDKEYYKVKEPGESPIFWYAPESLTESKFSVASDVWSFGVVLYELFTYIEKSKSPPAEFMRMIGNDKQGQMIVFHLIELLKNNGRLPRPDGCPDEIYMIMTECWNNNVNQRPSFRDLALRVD
# UniProt P23458, 875-1153: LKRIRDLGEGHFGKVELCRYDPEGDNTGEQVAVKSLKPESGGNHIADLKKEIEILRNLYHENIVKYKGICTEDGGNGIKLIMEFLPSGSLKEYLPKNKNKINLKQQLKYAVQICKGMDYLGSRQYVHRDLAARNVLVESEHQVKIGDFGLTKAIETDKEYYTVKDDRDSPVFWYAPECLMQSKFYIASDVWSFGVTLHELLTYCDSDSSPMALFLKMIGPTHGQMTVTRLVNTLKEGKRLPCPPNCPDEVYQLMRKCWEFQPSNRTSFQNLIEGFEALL
# How the values were obtained:
# JAK2 = JAK2 (Homo sapiens (Human), UniProt O60674); assay: Jak biochemical HTRF assay, JAK2; conditions: recombinant GST-tagged catalytic domain
# JAK1 = JAK1 (Homo sapiens (Human), UniProt P23458); assay: Jak biochemical HTRF assay, JAK1; conditions: recombinant GST-tagged catalytic domain
# Method: Jak Biochemical HTRF Assay Protocol
# The ability of compounds to inhibit the activity of JAK1, JAK2, JAK3, and Tyk2 was measured using a recombinant purified GST-tagged catalytic domain for each enzyme (Invitrogen JAK1 #M4290, JAK2 #M4290, JAK3 #M4290, Tyk2 #M4290) in an HTRF format biochemical assay. […] The basic assay protocol is as follows: First, 250 nL of diluted compounds in DMSO were dispensed into the wells of a dry 384-well Black plate (Greiner #781076) using a Labcyte Echo 555 acoustic dispenser. Subsequent reagent additions employed an Agilent Bravo. […] After equilibration, 2 μL of 10×ATP in 1× assay buffer was added to initiate the kinase reaction and the plates were shaken and then incubated at room temperature for 120 minutes. […] Plates were shaken and centrifuged and then incubated 60 minutes at room temperature and then read on a Perkin Elmer Envision (λex=337 nm, λem=665 and 615 nm, TRF delay time=20 μs). HTRF signal=10,000*665 nm reading/615 nm reading. After normalization to untreated controls, the percent inhibition of the HTRF signal at each compound concentration was calculated. The plot of percent inhibition versus the log of compound concentration was fit with a 4-parameter dose response equation to calculate IC50 values.
# Final Reaction Conditions were:
# Examples of the instant invention were evaluated in JAK1 and JAK2 in vitro binding assays.
SMILES,IC50 (JAK2),IC50 (JAK1)
"CCOC(=O)C(C)(C)C(O)(c1ccc(Nc2nn([C@H]3CCCC[C@@H]3C#N)c3cc[nH]c(=O)c23)cc1)C(F)(F)F (single isomer, unassigned) [Example 3-118, (R or S) Ethyl 3-(4-((1-((1S,2S)-2-cyanocyclohexyl)-4-oxo-4,5-dihydro-1H-pyrazolo[4,3-c]pyridin-3-yl)amino)phenyl)-4,4,4-trifluoro-3-hydroxy-2,2-dimethylbutanoate]",0.88 nM,0.5 nM
"CC(C)(C)S(=O)(=O)c1ccc(Nc2nn([C@H]3CCCCC[C@@H]3C#N)c3cc[nH]c(=O)c23)cc1 (single isomer, unassigned) [Example 3-167, (1S,2S or 1R,2R)-2-(3-{[4-(tert-butylsulfonyl)phenyl]amino}-4-oxo-4,5-dihydro-1H-pyrazolo[4,3-c]pyridin-1-yl)cycloheptanecarbonitrile]",8.6 nM,6.9 nM
"CC(C)(C)S(=O)(=O)c1ccc(Nc2nn([C@@H]3CCCCC[C@H]3C#N)c3cc[nH]c(=O)c23)cc1 (single isomer, unassigned) [Example 3-168, (1R,2R or 1S,2S)-2-(3-{[4-(tert-butylsulfonyl)phenyl]amino}-4-oxo-4,5-dihydro-1H-pyrazolo[4,3-c]pyridin-1-yl)cycloheptanecarbonitrile]",0.34 nM,0.17 nM
"CC(C)(C)S(=O)(=O)c1ccc(Nc2nn([C@H]3CCCCC[C@H]3C#N)c3cc[nH]c(=O)c23)cc1 (single isomer, unassigned) [Example 3-169, (1R,2S or 1S,2R)-2-(3-{[4-(tert-butylsulfonyl)phenyl]amino}-4-oxo-4,5-dihydro-1H-pyrazolo[4,3-c]pyridin-1-yl)cycloheptanecarbonitrile]",0.95 nM,1.2 nM
"CC(C)(C)S(=O)(=O)c1ccc(Nc2nn([C@@H]3CCCCC[C@@H]3C#N)c3cc[nH]c(=O)c23)cc1 (single isomer, unassigned) [Example 3-170, (1S,2R or 1R,2S)-2-(3-{[4-(tert-butylsulfonyl)phenyl]amino}-4-oxo-4,5-dihydro-1H-pyrazolo[4,3-c]pyridin-1-yl)cycloheptanecarbonitrile]",1.7 nM,2.4 nM
"N#C[C@H]1CCCC[C@@H]1n1nc(Nc2ccc3c(c2)C(O)C2(CCOCC2)S3(=O)=O)c2c(=O)[nH]ccc21 (single isomer, unassigned) [Example 15-65, (1S,2S)-2-(3-{[(3S or 3R)-3-hydroxy-1,1-dioxido-2′,3′,5′,6′-tetrahydro-3H-spiro[1-benzothiophene-2,4′-pyran]-5-yl]amino}-4-oxo-4,5-dihydro-1H-pyrazolo[4,3-c]pyridin-1-yl)cyclohexanecarbonitrile]",0.41 nM,1.1 nM
"N#C[C@H]1CCCC[C@@H]1n1nc(Nc2ccc3c(c2)C(O)C2(CCOCC2)S3(=O)=O)c2c(=O)[nH]ccc21 (single isomer, unassigned) [Example 15-66, (1S,2S)-2-(3-{[(3R or 3S)-3-hydroxy-1,1-dioxido-2′,3′,5′,6′-tetrahydro-3H-spiro[1-benzothiophene-2,4′-pyran]-5-yl]amino}-4-oxo-4,5-dihydro-1H-pyrazolo[4,3-c]pyridin-1-yl)cyclohexanecarbonitrile]",0.27 nM,0.11 nM

# Results, then the molecule that gave them:
IC50 (JAK2),IC50 (JAK1),SMILES
33 nM,114 nM,"Cc1cc(Nc2nn([C@H]3CC(F)(F)C[C@H]3C#N)c3cc[nH]c(=O)c23)ccc1C(=O)N1CCCC1 (single isomer, unassigned) [Example 22-6, (1R,2S or 1S,2R)-4,4-difluoro-2-(3-{[3-methyl-4-(pyrrolidin-1-ylcarbonyl)phenyl]amino}-4-oxo-4,5-dihydro-1H-pyrazolo[4,3-c]pyridin-1-yl)cyclopentanecarbonitrile]"
0.51 nM,0.28 nM,"Cc1cc(Nc2nn([C@@H]3CC(F)(F)C[C@H]3C#N)c3cc[nH]c(=O)c23)ccc1C(=O)N1CCCC1 (single isomer, unassigned) [Example 22-7, (1R,2R or 1S,2S)-4,4-difluoro-2-(3-{[3-methyl-4-(pyrrolidin-1-ylcarbonyl)phenyl]amino}-4-oxo-4,5-dihydro-1H-pyrazolo[4,3-c]pyridin-1-yl)cyclopentanecarbonitrile]"
17 nM,19 nM,"Cc1cc(Nc2nn([C@H]3CC(F)(F)C[C@@H]3C#N)c3cc[nH]c(=O)c23)ccc1C(=O)N1CCCC1 (single isomer, unassigned) [Example 22-8, (1S,2S or 1R,2R)-4,4-difluoro-2-(3-{[3-methyl-4-(pyrrolidin-1-ylcarbonyl)phenyl]amino}-4-oxo-4,5-dihydro-1H-pyrazolo[4,3-c]pyridin-1-yl)cyclopentanecarbonitrile]"
